Source: PubChem BioAssay AID588458 (Sanford-Burnham Center for Chemical Genomics, 2011)
Only a part is listed here, and it is no random draw. Activity calls are given as the source filed them. Cut-off read from the data, not from the text of the source: active = inhibition above about 50%; inactive = the rest.

Protein sequences, listed by entry. Tags and fused reporters are not part of them. Residues count along the entry.
UniProt P26358, 504-1616 limits assumed: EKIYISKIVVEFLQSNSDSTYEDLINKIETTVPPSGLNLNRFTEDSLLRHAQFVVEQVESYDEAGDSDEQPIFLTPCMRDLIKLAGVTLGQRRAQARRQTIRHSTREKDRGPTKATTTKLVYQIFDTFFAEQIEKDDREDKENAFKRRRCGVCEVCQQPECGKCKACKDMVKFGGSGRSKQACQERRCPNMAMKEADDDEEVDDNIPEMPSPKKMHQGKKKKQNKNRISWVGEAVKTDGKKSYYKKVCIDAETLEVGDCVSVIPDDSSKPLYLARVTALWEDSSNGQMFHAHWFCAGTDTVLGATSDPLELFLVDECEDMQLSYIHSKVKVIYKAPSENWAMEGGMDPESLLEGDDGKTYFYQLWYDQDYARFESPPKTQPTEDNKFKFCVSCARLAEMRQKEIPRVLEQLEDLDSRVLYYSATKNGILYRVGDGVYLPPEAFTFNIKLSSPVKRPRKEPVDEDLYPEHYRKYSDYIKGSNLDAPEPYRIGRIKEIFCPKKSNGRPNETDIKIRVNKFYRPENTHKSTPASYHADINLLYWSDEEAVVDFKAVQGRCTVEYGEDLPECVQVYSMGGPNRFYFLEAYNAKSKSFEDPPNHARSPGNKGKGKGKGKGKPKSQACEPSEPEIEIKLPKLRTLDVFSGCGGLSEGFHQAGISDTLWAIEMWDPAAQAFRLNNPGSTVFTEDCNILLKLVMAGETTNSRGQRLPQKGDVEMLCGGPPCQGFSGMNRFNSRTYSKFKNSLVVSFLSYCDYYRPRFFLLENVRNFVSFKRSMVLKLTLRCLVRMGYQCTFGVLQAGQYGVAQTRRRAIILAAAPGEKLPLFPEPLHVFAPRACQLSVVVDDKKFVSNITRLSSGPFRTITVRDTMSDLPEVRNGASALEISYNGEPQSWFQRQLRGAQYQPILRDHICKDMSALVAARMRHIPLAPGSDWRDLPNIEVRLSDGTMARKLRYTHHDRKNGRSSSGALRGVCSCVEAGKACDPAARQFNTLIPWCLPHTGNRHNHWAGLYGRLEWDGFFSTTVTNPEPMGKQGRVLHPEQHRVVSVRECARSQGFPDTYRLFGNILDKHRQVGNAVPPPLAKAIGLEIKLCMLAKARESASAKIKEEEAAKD

molecular target: DNA (cytosine-5)-methyltransferase 1 (Homo sapiens) (UniProt P26358); assay: inhibition of DNA methyltransferase DNMT1 – biochemical, molecular beacon, fluorescence, HinP1I cleavage, uHTS, primary screen (AID 588458); settings: at 10 µM, stronger effect = higher value

Structure (SMILES) | inhibition (reported as % activation of signal)
COc1ccccc1OP(C)(=O)Nc1ccc(C)cc1 (stereo not given) | inactive: -1.03%
CCOC(=O)c1ccc(NP(C)(=O)Oc2ccccc2)cc1 (stereo not given) | inactive: 1.7%
CP(=O)(Nc1ccccc1Br)Oc1ccccc1 (stereo not given) | inactive: 5.07%
COc1ccccc1OP(C)(=O)Nc1ccccc1 (stereo not given) | inactive: 2.4%
CP(=S)(Nn1cnnc1)Oc1ccccc1 (stereo not given) | inactive: 1.16%
Cc1cc(C)cc(OP(C)(=O)Nc2ccc(SC(F)(F)F)cc2)c1 (stereo not given) | inactive: -7.32%
CP(=O)(NC(=O)Nc1ccccc1)Oc1ccccc1 (stereo not given) | inactive: 0.91%
CCc1ccc(OP(C)(=O)N2CCN(c3ccc([N+](=O)[O-])cc3)CC2)cc1 (stereo not given) | inactive: -3.37%
CP(=O)(Oc1ccccc1)OC(c1ccccc1)C(F)(F)F (stereo not given) | inactive: -0.36%
CP(=O)(Nc1ccc(SC(F)(F)F)cc1)Oc1ccc(Cl)cc1 (stereo not given) | inactive: -7.79%
Cc1cccc(C)c1OP(C)(=O)Nc1ccc(SC(F)(F)F)cc1 (stereo not given) | inactive: 2.54%
Cc1ccc(Nc2c([N+](=O)[O-])cc([N+](=O)[O-])cc2[N+](=O)[O-])cc1 | inactive: 5.52%
CP(=O)(Nc1ccccn1)Oc1ccc(Cl)cc1 (stereo not given) | inactive: 0.24%
O=[N+]([O-])c1cc([N+](=O)[O-])c(O)c([N+](=O)[O-])c1.c1ccc(Oc2ccncc2)cc1 | inactive: -1.65%
CCOC(=O)c1ccc(NP(C)(=O)Oc2ccc(OC)cc2)cc1 (stereo not given) | inactive: -2.9%
CCOP(C)(=S)SCC(=O)NC(C)C(=O)O (stereo not given) | inactive: 0.21%
CN(Cc1cccnc1)C(=O)COc1ccc(Cl)c(Cl)c1.O=[N+]([O-])c1cc([N+](=O)[O-])c(O)c([N+](=O)[O-])c1 | inactive: -0.45%
O=[N+]([O-])c1cc([N+](=O)[O-])c(-n2nnc3ccccc32)c([N+](=O)[O-])c1 | inactive: 0.75%

Structure (SMILES) | inhibition (reported as % activation of signal)
Cc1nc2ccc3ccccc3c2s1.O=[N+]([O-])c1cc([N+](=O)[O-])c(O)c([N+](=O)[O-])c1 | inactive: 0.42%
O=[N+]([O-])c1cc([N+](=O)[O-])c(-c2cnn(-c3ccccc3)c2)c([N+](=O)[O-])c1 | inactive: -5.71%
CCOC(=O)C(CC)C1=NC(C)(C)Cc2ccccc21.O=[N+]([O-])c1cc([N+](=O)[O-])c(O)c([N+](=O)[O-])c1 (stereo not given) | inactive: -0.61%
CC1=C2N=C(C=C3N=C(C(C)=C4[N-][C@@](C)([C@@H]5N=C1[C@](C)(CCC(=O)NC[C@@H](C)OP(=O)([O-])O[C@H]1[C@@H](O)[C@@H](n6cnc7cc(C)c(C)cc76)O[C@@H]1CO)[C@H]5CC(N)=O)[C@@](C)(CC(N)=O)[C@@H]4CCC(N)=O)[C@@](C)(CC(N)=O)[C@@H]3CCC(N)=O)C(C)(C)[C@@H]2CCC(N)=O.[C-]#N.[Co+3] | inactive: 15.3%
O=[N+]([O-])c1cc([N+](=O)[O-])c(Nc2nnnn2CCO)c([N+](=O)[O-])c1 | inactive: -2.79%
CCCOc1ccc(NP(C)(=O)Oc2ccc(Cl)cc2)cc1 (stereo not given) | inactive: -2.8%
CP(=O)(Nc1ccc(SC(F)(F)F)cc1)Oc1ccccc1 (stereo not given) | inactive: 7.58%
CN1CCCCC1COC(=O)C1(O)c2ccccc2CCc2ccccc21 (stereo not given) | inactive: 2.63%
COc1ccccc1OP(C)(=O)Nc1c(C)cccc1C (stereo not given) | inactive: 2.07%
O=C(O)c1cccc(Nc2c([N+](=O)[O-])cc([N+](=O)[O-])cc2[N+](=O)[O-])c1 | inactive: 1.98%
CC1=NCCc2c1[nH]c1ccccc21.O=[N+]([O-])c1cc([N+](=O)[O-])c(O)c([N+](=O)[O-])c1 | inactive: -2.52%
CCOC(=O)c1ccc(NP(C)(=O)Oc2cc(C)cc(C)c2)cc1 (stereo not given) | inactive: -0.39%
Cc1cc(C)cc(OP(C)(=O)Nc2ccc(C)cc2C)c1 (stereo not given) | inactive: -0.41%
COc1ccccc1OP(C)(=O)Nc1cccc(Br)c1 (stereo not given) | inactive: 1.38%
Cc1ccc(C)c(NP(C)(=O)Oc2ccccc2)c1 (stereo not given) | inactive: 5.74%
Cc1cc(C)cc(OP(C)(=O)Nc2ccccn2)c1 (stereo not given) | inactive: 3.86%
CP(=O)(Nc1cccc(Br)c1)Oc1ccccc1 (stereo not given) | inactive: 0.01%
